Experimental data reported in patent US9764004B2 (Eli Lilly and Company, priority 2015, dated 2017).

Sequences of proteins named here, by UniProt entry; tags and fusion partners are left off. Residues count along the entry.
UniProt P47871, 26-477: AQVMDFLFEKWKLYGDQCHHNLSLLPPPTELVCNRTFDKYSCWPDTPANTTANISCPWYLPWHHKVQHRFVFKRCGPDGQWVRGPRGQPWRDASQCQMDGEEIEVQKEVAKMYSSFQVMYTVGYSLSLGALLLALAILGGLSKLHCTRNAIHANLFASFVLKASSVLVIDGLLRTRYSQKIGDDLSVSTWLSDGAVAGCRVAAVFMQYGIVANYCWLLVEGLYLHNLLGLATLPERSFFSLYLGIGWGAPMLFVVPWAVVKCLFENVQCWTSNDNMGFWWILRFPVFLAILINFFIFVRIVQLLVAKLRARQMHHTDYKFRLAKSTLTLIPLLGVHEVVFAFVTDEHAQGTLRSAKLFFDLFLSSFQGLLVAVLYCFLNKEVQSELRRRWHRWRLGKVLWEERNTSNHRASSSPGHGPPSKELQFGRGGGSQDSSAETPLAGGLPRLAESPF
UniProt P30082, 27-485: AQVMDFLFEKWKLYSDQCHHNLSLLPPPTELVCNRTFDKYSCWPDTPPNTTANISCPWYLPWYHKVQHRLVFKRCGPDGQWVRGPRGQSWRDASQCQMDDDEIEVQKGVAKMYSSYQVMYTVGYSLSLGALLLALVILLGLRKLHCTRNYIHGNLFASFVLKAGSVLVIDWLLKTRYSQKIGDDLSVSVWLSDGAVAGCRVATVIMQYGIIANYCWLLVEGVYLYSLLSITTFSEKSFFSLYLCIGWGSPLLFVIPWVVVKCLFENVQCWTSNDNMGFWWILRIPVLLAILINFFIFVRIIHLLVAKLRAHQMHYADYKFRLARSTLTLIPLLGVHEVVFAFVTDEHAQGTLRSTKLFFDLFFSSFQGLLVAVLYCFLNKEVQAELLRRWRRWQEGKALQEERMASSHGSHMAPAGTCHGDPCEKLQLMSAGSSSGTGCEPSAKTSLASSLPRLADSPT
UniProt Q61606, 27-485: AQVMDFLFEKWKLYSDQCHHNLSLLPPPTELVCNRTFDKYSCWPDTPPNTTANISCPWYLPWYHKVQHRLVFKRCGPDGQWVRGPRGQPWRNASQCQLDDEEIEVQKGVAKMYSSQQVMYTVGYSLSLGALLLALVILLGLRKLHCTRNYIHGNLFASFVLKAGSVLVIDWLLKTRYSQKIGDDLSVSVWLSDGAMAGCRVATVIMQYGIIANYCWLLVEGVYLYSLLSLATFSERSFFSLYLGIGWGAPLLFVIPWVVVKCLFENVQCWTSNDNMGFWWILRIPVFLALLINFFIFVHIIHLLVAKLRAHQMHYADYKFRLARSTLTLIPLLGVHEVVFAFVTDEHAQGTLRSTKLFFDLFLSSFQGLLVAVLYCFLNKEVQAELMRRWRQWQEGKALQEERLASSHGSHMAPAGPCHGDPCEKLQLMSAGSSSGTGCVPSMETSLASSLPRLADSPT
UniProt P43220, 24-463: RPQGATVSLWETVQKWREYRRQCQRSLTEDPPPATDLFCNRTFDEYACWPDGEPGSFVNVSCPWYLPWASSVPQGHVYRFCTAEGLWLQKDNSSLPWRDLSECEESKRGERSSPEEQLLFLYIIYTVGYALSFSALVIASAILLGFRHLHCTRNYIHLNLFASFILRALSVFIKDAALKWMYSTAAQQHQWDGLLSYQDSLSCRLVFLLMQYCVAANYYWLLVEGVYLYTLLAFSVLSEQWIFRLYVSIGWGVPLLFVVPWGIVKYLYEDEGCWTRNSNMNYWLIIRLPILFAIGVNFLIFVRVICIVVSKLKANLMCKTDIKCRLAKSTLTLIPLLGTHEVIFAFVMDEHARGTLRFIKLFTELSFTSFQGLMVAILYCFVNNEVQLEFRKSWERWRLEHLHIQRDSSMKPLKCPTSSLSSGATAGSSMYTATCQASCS

What was measured:
hGIP-R = biological target: T1, hGIP-R (Homo sapiens, UniProt P48546); test: hGIP-R functional cAMP assay; type: cell-based; details: cAMP; geometric mean ± SEM; read-out: hGIP-R EC50
T1 construct: expressed in transfected cells; host or cells: CHO-S (Chinese Hamster Ovary, suspension), pcDNA3.1-NeoR, Geneticin selection
T1 sequence (P48546 22-466): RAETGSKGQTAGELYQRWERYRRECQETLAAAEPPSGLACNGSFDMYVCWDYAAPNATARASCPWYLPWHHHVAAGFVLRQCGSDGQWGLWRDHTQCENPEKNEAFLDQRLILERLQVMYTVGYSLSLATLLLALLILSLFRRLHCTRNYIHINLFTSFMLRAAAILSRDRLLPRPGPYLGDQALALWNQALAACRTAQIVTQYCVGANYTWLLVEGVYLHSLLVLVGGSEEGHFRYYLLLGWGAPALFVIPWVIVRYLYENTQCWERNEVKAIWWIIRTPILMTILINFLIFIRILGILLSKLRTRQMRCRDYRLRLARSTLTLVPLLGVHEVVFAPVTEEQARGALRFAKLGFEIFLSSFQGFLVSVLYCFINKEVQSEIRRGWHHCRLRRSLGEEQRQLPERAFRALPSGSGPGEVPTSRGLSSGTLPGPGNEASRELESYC

[1] = biological target: T2, human glucagon receptor (hGcg-R) (Homo sapiens, UniProt P47871); test: hGcg-R functional cAMP assay; type: cell-based; design: expressed in transfected cells; host or cells: 293HEK, plasmid phD, hygromycin selection; details: cAMP; geometric mean ± SEM; read-out: hGcg-R EC50
[2] = biological target: T2, human glucagon receptor (hGcg-R); test: Radioligand competition binding (SPA), hGcg-R membranes; design: expressed in transfected cells; crude plasma membranes; details: mean ± SEM
[3] = biological target: T3, rat glucagon receptor (rGcg-R) (Rattus norvegicus, UniProt P30082); test: Radioligand competition binding (SPA), rGcg-R membranes; details: mean ± SEM
T3 construct: expressed in transfected cells; host or cells: 293HEK, transient (48 h), pcDNA3.1-ZeoR; crude plasma membranes

[4] = Pharmacokinetics in Cynomolgus Monkeys; details: cynomolgus monkey, in vivo
Method: Plasma concentrations of compounds are determined by LC/MS methods. Each method measured the intact peptide (peptide plus linked time extension). For each assay, the compound and an analog, used as an internal standard (IS), are extracted from 100% rat or monkey plasma (50 μl) using methanol and 0.1% formic acid. Two distinct layers are formed upon centrifugation with the compound and the IS located in the supernatant. A 275 μl aliquot of the supernatant is transferred to a Thermo Protein Precipitation Plate where a vacuum is applied for collection of the flow through into a 96-well plate.
Samples are dried with heated nitrogen gas to remove the supernatant. A volume of 150 μl of 30% acetonitrile and 5% formic acid is added to the wells to reconstitute the samples. Injected samples (20 μl) are loaded onto a Supelco Analytical Discovery BIO Wide Pore C5-3, 5 cm×0.1 mm, 3 μm column. The column effluent is directed into a Thermo Q-Exactive mass spectrometer for detection and quantitation.
Male Cynomolgus monkeys are administered a single intravenous (50 nmole/kg) or subcutaneous (50 nmole/kg) dose of a test compound in Tris Buffer (pH 8.0) at a volume of 0.25 ml/kg. Blood is collected from each animal at 0.5 (IV only), 6, 12, 24, 48, 72, 96, 120, 168, 192, 240, 336, 480, 576, and 672 hours post-dose. Plasma concentrations of compounds are determined by LC/MS methods generally as described above in the Sprague dawley rat studies.
Mean (n=2) pharmacokinetic parameters are provided below in table 4.

Pharmacokinetics in Rats = type: in vivo; details: rat, plasma; male Sprague Dawley rats, single SC 100 nmol/kg
[5] = biological target: T4, mouse glucagon receptor (mGcg-R) (Mus musculus, UniProt Q61606); test: Radioligand competition binding (SPA), mGcg-R membranes; details: mean ± SEM
T4 construct: expressed in transfected cells; crude plasma membranes

[6] = biological target: human Glucagon-Like Peptide-1 receptor (hGLP-1R) (Homo sapiens, UniProt P43220); test: hGLP-1-R functional cAMP assay; details: hGlp-1R EC50, cAMP; geometric mean ± SEM
[7] = Solubility and Stability, 10 mg/mL, one week at 4° C.; details: SEC-HPLC
[8] = male Cynomolgus monkeys, SC 50 nmol/kg, mean n=2
[9] = 10 mg/mL in C6N (10 mM Citrate, 100 mM NaCl, pH 6)
[10] = 10 mg/mL in C7N (10 mM Citrate, 100 mM NaCl, pH 7)
[11] = 10 mg/mL in H6.5N (10 mM Histidine, 100 mM NaCl, pH 6.5)
[12] = 10 mg/mL in H7.5N (10 mM Histidine, 100 mM NaCl, pH 7.5)

EC50 (hGIP-R) [pM] | EC50 [1] [pM] | Ki [2] [pM] | Ki [3] [pM] | Ki [5] [pM] | EC50 [6] [pM] | Δ % HMW Peak [7, 9] [%] | Δ % HMW Peak [7, 10] [%] | Δ % HMW Peak [7, 11] [%] | Δ % HMW Peak [7, 12] [%] | Structure (SMILES) | AUC(0-inf) (Pharmacokinetics in Rats) [µM·h] | CL/F (Pharmacokinetics in Rats) [mL/h/kg] | Cmax (Pharmacokinetics in Rats) [nM] | Tmax (Pharmacokinetics in Rats) [h] | half-life (Pharmacokinetics in Rats) [h] | other results
> 500000 | 2.78 ± 0.1 | 738 | 5860 | 774 | 19000 ± 8200 | 0.64 | 0.26 | 0.35 | 0.44 | CC(C)C[C@H](NC(=O)[C@H](Cc1c[nH]c2ccccc12)NC(=O)[C@H](CCC(=O)O)NC(=O)[C@@H](NC(=O)[C@H](Cc1ccccc1)NC(=O)[C@H](CCC(=O)O)NC(=O)[C@H](CCCCNC(=O)COCCOCCNC(=O)COCCOCCNC(=O)CC[C@H](NC(=O)CC[C@H](NC(=O)CCCCCCCCCCCCCCCCC(=O)O)C(=O)O)C(=O)O)NC(=O)[C@H](C)NC(=O)[C@H](CCCCN)NC(=O)[C@H](CCCCN)NC(=O)C(C)(C)NC(=O)[C@H](CC(=O)O)NC(=O)[C@H](CC(C)C)NC(=O)[C@H](Cc1ccc(O)cc1)NC(=O)[C@H](CCCCN)NC(=O)[C@H](CO)NC(=O)[C@H](Cc1ccc(O)cc1)NC(=O)[C@H](CC(=O)O)NC(=O)[C@H](CO)NC(=O)[C@@H](NC(=O)[C@H](Cc1ccccc1)NC(=O)[C@@H](NC(=O)CNC(=O)[C@H](CCC(N)=O)NC(=O)C(C)(C)NC(=O)[C@@H](N)Cc1ccc(O)cc1)[C@@H](C)O)[C@@H](C)O)C(C)C)C(=O)N[C@@H](CC(C)C)C(=O)N[C@@H](CCC(=O)O)C(=O)N[C@H](C(=O)NCC(=O)N1CCC[C@H]1C(=O)N[C@@H](CO)C(=O)N[C@@H](CO)C(=O)NCC(N)=O)[C@@H](C)O [Example 4] | 5.95 | 17 | 257 | 6 | 16 | Δ % Main Peak ([7]; 10 mg/mL in H7.5N): −0.79%
> 500000 | 4.13 ± 0.26 | 316 | 980 | 123 | > 100000 | −0.03 | −0.26 | 0.11 | 0.14 | CC(C)C[C@H](NC(=O)[C@H](Cc1c[nH]c2ccccc12)NC(=O)[C@H](C)NC(=O)[C@@H](NC(=O)[C@H](Cc1ccccc1)NC(=O)[C@H](CCC(=O)O)NC(=O)[C@H](CCCCNC(=O)COCCOCCNC(=O)COCCOCCNC(=O)CC[C@H](NC(=O)CCCCCCCCCCCCCCCCC(=O)O)C(=O)O)NC(=O)[C@H](C)NC(=O)[C@H](CCCCN)NC(=O)[C@H](CCCCN)NC(=O)C(C)(C)NC(=O)[C@H](CC(=O)O)NC(=O)[C@H](CC(C)C)NC(=O)[C@H](Cc1ccc(O)cc1)NC(=O)[C@H](CCCCN)NC(=O)[C@H](CO)NC(=O)[C@H](Cc1ccc(O)cc1)NC(=O)[C@H](CC(=O)O)NC(=O)[C@H](CO)NC(=O)[C@@H](NC(=O)[C@H](Cc1ccccc1)NC(=O)[C@@H](NC(=O)CNC(=O)[C@H](CCC(N)=O)NC(=O)C(C)(C)NC(=O)[C@@H](N)Cc1ccc(O)cc1)[C@@H](C)O)[C@@H](C)O)C(C)C)C(=O)N[C@@H](CC(C)C)C(=O)N[C@@H](CCC(=O)O)C(=O)N[C@@H](CCC(=O)O)C(=O)O [Example 6] | – | – | – | – | – | Δ % Main Peak ([7]; 10 mg/mL in C6N): −0.98%; Δ % Main Peak ([7]; 10 mg/mL in C7N): 0.36%

Structure (SMILES) | EC50 (hGIP-R) [pM] | EC50 [1] [pM] | Ki [2] [pM] | Ki [3] [pM] | Ki [5] [pM] | EC50 [6] [pM] | Δ % HMW Peak [7, 9] [%] | Δ % HMW Peak [7, 10] [%] | Δ % HMW Peak [7, 11] [%] | Δ % HMW Peak [7, 12] [%] | AUC(0-inf) (Pharmacokinetics in Rats) [µM·h] | CL/F (Pharmacokinetics in Rats) [mL/h/kg] | Cmax (Pharmacokinetics in Rats) [nM] | Tmax (Pharmacokinetics in Rats) [h] | half-life (Pharmacokinetics in Rats) [h] | other results
CC(C)C[C@H](NC(=O)[C@H](Cc1c[nH]c2ccccc12)NC(=O)[C@H](CCC(=O)O)NC(=O)[C@@H](NC(=O)[C@H](Cc1ccccc1)NC(=O)[C@H](CCC(=O)O)NC(=O)[C@H](CCCCNC(=O)COCCOCCNC(=O)COCCOCCNC(=O)CC[C@H](NC(=O)CC[C@H](NC(=O)CCCCCCCCCCCCCCCCCCC(=O)O)C(=O)O)C(=O)O)NC(=O)[C@H](C)NC(=O)[C@H](CCCCN)NC(=O)[C@H](CCCCN)NC(=O)C(C)(C)NC(=O)[C@H](CC(=O)O)NC(=O)[C@H](CC(C)C)NC(=O)[C@H](Cc1ccc(O)cc1)NC(=O)[C@H](CCCCN)NC(=O)[C@H](CO)NC(=O)[C@H](Cc1ccc(O)cc1)NC(=O)[C@H](CC(=O)O)NC(=O)[C@H](CO)NC(=O)[C@@H](NC(=O)[C@H](Cc1ccccc1)NC(=O)[C@@H](NC(=O)CNC(=O)[C@H](CCC(N)=O)NC(=O)C(C)(C)NC(=O)[C@@H](N)Cc1ccc(O)cc1)[C@@H](C)O)[C@@H](C)O)C(C)C)C(=O)N[C@@H](CC(C)C)C(=O)N[C@@H](CCC(=O)O)C(=O)N[C@H](C(=O)NCC(=O)N1CCC[C@H]1C(=O)N[C@@H](CO)C(=O)N[C@@H](CO)C(=O)NCC(=O)N[C@@H](C)C(=O)N1CCC[C@H]1C(=O)N1CCC[C@H]1C(=O)N1CCC[C@H]1C(=O)N[C@@H](CO)C(N)=O)[C@@H](C)O [Example 2] | > 500000 | 11.2 ± 2.5 | 1070 ± 160 | 5590 ± 240 | 991 ± 66 | > 100000 | – | – | – | – | 21.3 | 4.7 | 346 | 24 | 22 | AUC(0-inf) [4, 8]: 46.3 µM·h; Tmax [4, 8]: 18 h; half-life [4, 8]: 79 h; Cmax ([4]; male, sc, 50 nmol/kg, read-out: C0 or Cmax): 377 nM; CL/F ([4]; male, sc, 50 nmol/kg, read-out: CL or CL/F (converted)): 1.08 mL/h/kg
